The text below walks through data of PubChem BioAssay (NCATS).

Sequences of proteins named here, by UniProt entry; tags and fusion partners are left off.
UniProt P04637, whole entry: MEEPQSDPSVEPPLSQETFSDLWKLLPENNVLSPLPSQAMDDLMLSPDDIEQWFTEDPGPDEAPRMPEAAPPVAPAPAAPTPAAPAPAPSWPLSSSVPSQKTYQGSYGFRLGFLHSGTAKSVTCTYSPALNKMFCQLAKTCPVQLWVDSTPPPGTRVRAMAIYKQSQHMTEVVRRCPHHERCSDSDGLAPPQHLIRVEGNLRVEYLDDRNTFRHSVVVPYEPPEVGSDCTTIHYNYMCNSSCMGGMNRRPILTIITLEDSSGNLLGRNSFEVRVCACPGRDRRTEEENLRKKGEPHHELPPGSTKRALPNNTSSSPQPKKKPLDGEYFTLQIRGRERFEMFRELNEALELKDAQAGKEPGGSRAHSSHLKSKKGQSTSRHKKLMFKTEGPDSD

Each structure is given as a SMILES string. This is a selection; strong and weak results do not stand in their true shares. Inconclusive results are not listed. The source made the active and inactive calls. Calls follow the shape of the dose curve; as a rule, active = well fitted activation curve with a large enough effect; inconclusive = small, poorly fitted or top-dose-only effect; inactive = no such curve, though single readings can be large or run the other way.

This assay has as its target Cellular tumor antigen p53 (Homo sapiens) (UniProt P04637). Kind of assay: Primary qHTS for small molecule compounds that upregulate eGFP-tagged delta133p53alpha (in N-terminal) cells. (AID 2060322).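 Also: cells pre-induced with doxycycline then dosed without doxycycline; series mostly up to about 56 µM; 0% = DMSO vehicle and 100% = reference activator; nearly all actives have a fitted effect of over 75% in size.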 Particulars: NCI-H358 eGFP-delta133p53alpha fluorescence, 24 h; hits give high values. For orientation: qHTS replaces the single test concentration by a dilution series.
As for `CCOC(=O)C(=O)CBr`, the activation was inactive: -8.91%.

Consider `CCC(=O)N(c1ccccc1)C1CCNCC1`, for which the activation is inactive: -26.6%. Then `CCOC(=O)N1CCC(=O)CC1`, with inactive: 5.02%; and `CC(=O)N1CCc2ccc(N(C(=O)/C=C/c3cccc(C#N)c3)C3CCN(CCC4CCCC4)CC3)cc21`, with inactive: 16.2%.
